{"source": "patent US5236903A", "about": "“Polypeptide comprising repeated cell-adhesive core sequences” (Azuma; Ichiro, priority 1988, dated 1993)", "tested_on": "erythrocytes, spleen and thymus cells", "experiment": "Cytotoxicity on erythrocytes, spleen and thymus cells", "data": [{"substance": "Poly(L-arginyl-glycyl-L-aspartic acid)hydrochloride [Poly(Arg-Gly-Asp)-1500]", "values": [{"measurement": "Cytotoxicity on erythrocytes, spleen and thymus cells", "result": "neither any cytotoxicity"}]}, {"substance": "Poly(L-arginylglycyl-L-aspartate hydrochloride) [Poly(Arg-Gly-Asp)]", "values": [{"measurement": "Cytotoxicity on erythrocytes, spleen and thymus cells", "result": "neither any cytotoxicity"}]}]}
